The assay deals with 5-hydroxytryptamine receptor 1A (Rattus norvegicus, UniProt P19327). Put plainly: Evaluated for binding affinity towards 5-hydroxytryptamine 1A receptor in rat brain. The class given is tissue-based. In short, it runs like this: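 Rat hippocampal membranes (male Sprague-Dawley, ca. 220 g), homogenized in 50 mM Tris-HCl/0.5 mM Na2EDTA/10 mM MgSO4, preincubated 15 min at 37 °C, washed twice. Assay: 0.1 nM [3H]8-OH-DPAT, 4 mg wet tissue, 50 mM Tris-HCl pH 7.7 with 10 μM pargyline, 0.1% ascorbate; eleven competitor concentrations; 20 min at 37 °C; glass-fibre filtration, scintillation counting; nonspecific with 1 μM 8-OH-DPAT; Ki by Cheng-Prusoff.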

Protein sequences, listed by entry. Tags and fused reporters are not part of them.
UniProt P19327, whole entry: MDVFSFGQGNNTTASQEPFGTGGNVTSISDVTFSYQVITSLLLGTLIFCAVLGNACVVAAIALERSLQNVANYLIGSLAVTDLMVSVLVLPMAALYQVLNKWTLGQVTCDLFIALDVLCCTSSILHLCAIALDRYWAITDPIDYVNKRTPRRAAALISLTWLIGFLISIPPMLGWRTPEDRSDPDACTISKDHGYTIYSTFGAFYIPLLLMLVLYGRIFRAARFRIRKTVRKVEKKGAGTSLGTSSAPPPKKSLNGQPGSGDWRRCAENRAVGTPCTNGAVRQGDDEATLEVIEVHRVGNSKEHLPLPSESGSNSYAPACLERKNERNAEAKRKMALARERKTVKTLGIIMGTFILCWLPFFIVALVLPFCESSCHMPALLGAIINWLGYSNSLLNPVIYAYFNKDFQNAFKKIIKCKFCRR

For `CC1(C)CC(=O)N(CCCCN2CCN(c3ncccn3)CC2)C(=O)C1` [GEPIRONE], the Ki was 70 nM.

By Ki is commonly meant the dissociation constant of the complex between target and ligand, obtained from inhibition or displacement. Low readings indicate tighter binding, high ones weaker binding.

The record behind these values is ChEMBL document CHEMBL1123981, “Arylpiperazine derivatives as high-affinity 5-HT1A serotonin ligands” (J Med Chem, 1988).
